Target: T1, rat NPRA (Rattus norvegicus, UniProt P18910)
T1 construct: Full-Length cDNA Cloning and Generation of Cell Lines Overexpressing Natriuretic Peptide Receptors (NPRs); expressed in transfected cells; host or cells: Jump-in T-Rex HEK293 cells, pJTI R4 CMV-TO MCS pA vector, tetracycline induction
T1 sequence (P18910 29-1057): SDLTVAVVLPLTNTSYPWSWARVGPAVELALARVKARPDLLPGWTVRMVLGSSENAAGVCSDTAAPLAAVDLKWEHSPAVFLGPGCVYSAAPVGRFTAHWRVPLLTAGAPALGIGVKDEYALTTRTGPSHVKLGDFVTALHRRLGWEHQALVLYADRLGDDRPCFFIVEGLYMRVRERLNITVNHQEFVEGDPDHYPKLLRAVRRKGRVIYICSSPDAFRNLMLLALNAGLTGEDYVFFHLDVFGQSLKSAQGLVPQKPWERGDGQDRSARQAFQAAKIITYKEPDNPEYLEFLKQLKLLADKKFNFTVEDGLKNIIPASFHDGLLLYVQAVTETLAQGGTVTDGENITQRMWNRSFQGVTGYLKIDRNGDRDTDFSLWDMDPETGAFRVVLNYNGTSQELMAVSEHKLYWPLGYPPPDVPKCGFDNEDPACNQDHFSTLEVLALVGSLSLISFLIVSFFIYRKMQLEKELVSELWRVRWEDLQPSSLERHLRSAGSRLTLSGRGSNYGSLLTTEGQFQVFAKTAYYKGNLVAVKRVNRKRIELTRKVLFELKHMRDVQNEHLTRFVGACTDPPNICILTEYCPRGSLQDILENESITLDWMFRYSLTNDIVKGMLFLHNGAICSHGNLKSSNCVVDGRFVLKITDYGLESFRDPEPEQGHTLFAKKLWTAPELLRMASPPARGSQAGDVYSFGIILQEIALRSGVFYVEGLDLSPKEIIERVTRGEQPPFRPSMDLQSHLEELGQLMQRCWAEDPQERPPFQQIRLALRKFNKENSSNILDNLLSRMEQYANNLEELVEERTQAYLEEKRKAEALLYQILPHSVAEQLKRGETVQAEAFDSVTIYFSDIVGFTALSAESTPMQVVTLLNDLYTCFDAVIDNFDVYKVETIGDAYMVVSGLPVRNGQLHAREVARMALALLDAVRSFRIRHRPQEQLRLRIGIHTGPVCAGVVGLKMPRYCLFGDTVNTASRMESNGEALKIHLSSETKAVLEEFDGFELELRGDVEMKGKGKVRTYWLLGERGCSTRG
Experiment: Rat NPRA cGMP activity assay (HTRF) in HEK293 cells overexpressing NPRA
Assay type: cell-based
Method: All sequences were verified by full-length sequencing performed by ACGT DNA Sequencing Services (Wheeling, IL). The target cDNA was cloned into pJTI R4 CMV-TO MCS pA vector and then co-transfected with pJT1R4 Int vector into Jump-in™ T-Rex™ HEK293 cells for mammalian inducible expression using Jump-in™ T-Rex™ HEK293 kit and Lipofectamine LTX and Plus Reagent following manufacturer's protocols, as briefly described below.
Jump-in™ T-Rex™ HEK293 cells were plated in a BioCOAT® poly-D-lysine coated 6-well plate (Becton Dickinson, cat no. 354413) at 1 million cells/well in 2 mL culture medium and incubated for 18 h at 37° C. and 5% CO2 to 50-70% confluence. A cDNA mix was made in a 50 mL tube by adding 1.5 μg target cDNA, 1.5 μg pJT1R4 Int vector, 3 μL Plus Reagent, and 300 μL Opti-MEM I sequentially into the tube. A reagent mix was made in a separate 50 mL tube by adding 7.5 μL Lipofectamine LTX into 300 μL Opti-MEM I. The mixtures were incubated for 5 min at room temperature. The cDNA mix was then transferred into the reagent mix, mixed well, and incubated for additional 30 min at room temperature. A 500 μL of cDNA/Lipofectamine complex was then transferred to the wells of the cell plate in which the culture medium was changed to 2 mL of transfection medium containing DMEM with 4.5 g/L D-glucose supplemented with 10% FBS-HI and 20 mM HEPES. Transfected cells were cultured for 48 h in an incubator at 37° C. and 5% CO2. A subclone or pool from each overexpressing cell line was maintained in culture medium with the addition of 2 mg/mL G418 sulfate for the clone selection based on its built-in resistance to G418 sulfate for at least 3 weeks with medium changed every 2-3 days.
NPRs were overexpressed in T-Rex™ HEK293 cells following the induction with 300 ng/mL tetracycline in culture medium for 48 h. Induced cell lines in an exponential growth phase were treated with 0.05% trypsin-EDTA for a few seconds at room temperature, harvested in cell medium containing FBS to neutralize the trypsin, counted, and cryopreserved at the density of 2 million cells/mL in cell preservation solution containing FBS-HI with 5% DMSO. Cryopreserved cells were stored at −80° C. for a few days prior to transferring to a liquid nitrogen tank. Induced cell lines were then used for suspension assays to measure the activity of polypeptides to stimulate cGMP production in cGMP assays or for the preparation of cell membranes to measure the binding activity of polypeptides in competitive radioligand binding assays, as described below.
Test polypeptides were added starting at 10 μM concentration and at 10-fold decreasing concentrations to obtain 8-point concentration-response curves (i.e., 10 μM to 1 pM). The quantity of cGMP generated was detected using HTRF® technology and normalized to maximum amount produced by 100 nM amidated rat ANP and the minimum amount produced by assay buffer. Detailed steps are outlined below.
Stock solutions of test polypeptides (2 mM) dissolved in DMSO were first diluted 100-fold in assay buffer containing HBSS with Ca^2+ and Mg^2+, 5 mM HEPES, 0.5 mM IBMX, and 0.1% BSA or 0.1% casein (pH 7.4). The polypeptides were further serially diluted in 1:10 dilution steps in assay buffer containing 0.1% BSA or 0.1% casein to generate 8-point 2× working stock solutions ranging from 20 μM to […].
A 10 μL cell suspension containing 4000 cells was plated in Costar® half-area white opaque 96-well plates (Corning, cat no. 3693). Then 10 μL of assay buffer (basal activity), 200 nM of amidated rat ANP (maximum activity) or 2× working stock solutions of test polypeptides were transferred into the plate. Final concentration of DMSO in each well was 0.5%. The plate was shaken for 15 sec and then incubated for 40 min at room temperature.
The cGMP generated was measured using cGMP kit following the manufacturer's directions, as described below.

[1] = cGMP Assay (EC50, pM) w/Casein rNPRA, assay buffer with 0.1% casein
[2] = cGMP Assay (EC50, pM) w/BSA rNPRA, assay buffer with 0.1% BSA

SMILES	EC50 [1] [pM]	EC50 [2] [pM]
CC[C@H](C)[C@@H]1NC(=O)[C@H](CCCNC(=N)N)NC(=O)[C@H](CC(=O)O)NC(=O)[C@H]([C@@H](C)CC)NC(=O)[C@H](CCCCN)NC(=O)CNC(=O)CNC(=O)[C@H](Cc2ccccc2)NC(=O)[C@@H](NC(=O)[C@H](CO)NC(=O)[C@H](CO)NC(=O)[C@H](CCCNC(=N)N)NC(=O)[C@H](CCCCN)NC(=O)[C@H](Cc2ccncc2)NC(=O)[C@H](CO)NC(=O)CNC(=O)[C@H](CCCCN)NC(=O)[C@H](CCC(=O)O)NC(=O)[C@H](CCCCN)NC(=O)[C@H](CCC(=O)O)NC(=O)[C@H](CCCCN)NC(=O)[C@H](CCC(=O)O)NC(=O)CC[C@H](NC(=O)CCCCCCCCCCCCCCCCCCC(=O)O)C(=O)O)CSSC[C@@H](C(=O)N2CCC[C@H]2C(=O)N[C@@H](CO)C(=O)N[C@@H](Cc2ccccc2)C(=O)N[C@@H](CCCNC(=N)N)C(=O)N[C@@H](Cc2c[nH]cn2)C(=O)NCC(=O)NCC(=O)N2CCC[C@H]2C(=O)N[C@@H](CO)C(=O)N[C@@H](CO)C(=O)NCC(=O)N[C@@H](C)C(=O)N2CCC[C@H]2C(=O)N2CCC[C@H]2C(=O)N2CCC[C@H]2C(=O)N[C@@H](CO)C(N)=O)NC(=O)CNC(=O)[C@H](CC(C)C)NC(=O)CNC(=O)[C@H](CO)NC(=O)[C@H](CCC(N)=O)NC(=O)[C@H](CN)NC(=O)CNC1=O [Example 31]	12200	
CC[C@H](C)[C@@H]1NC(=O)[C@H](CCCNC(=N)N)NC(=O)[C@H](CC(=O)O)NC(=O)[C@H]([C@@H](C)CC)NC(=O)[C@H](CCCNC(=N)N)NC(=O)CNC(=O)CNC(=O)[C@H](Cc2ccccc2)NC(=O)[C@@H](NC(=O)[C@H](CO)NC(=O)[C@H](CO)NC(=O)[C@H](CCCNC(=N)N)NC(=O)[C@H](CCCNC(=N)N)NC(=O)[C@H](Cc2ccncc2)NC(=O)[C@H](CO)NC(=O)CNC(=O)[C@H](CCCCN)NC(=O)[C@H](CCC(=O)O)NC(=O)[C@H](CCCCN)NC(=O)[C@H](CCC(=O)O)NC(=O)[C@H](CCCCN)NC(=O)[C@H](CCC(=O)O)NC(=O)CC[C@H](NC(=O)CCCCCCCCCCCCCCCCCCC(=O)O)C(=O)O)CSSC[C@@H](C(=O)N2CCC[C@H]2C(=O)N[C@@H](CO)C(=O)N[C@@H](Cc2ccccc2)C(=O)N[C@@H](CCCNC(=N)N)C(=O)N[C@@H](Cc2c[nH]cn2)C(=O)NCC(=O)N2CCC[C@H]2C(=O)N[C@@H](CO)C(=O)N[C@@H](CO)C(=O)NCC(=O)N[C@@H](C)C(=O)N2CCC[C@H]2C(=O)N2CCC[C@H]2C(=O)N2CCC[C@H]2C(=O)N[C@@H](CO)C(N)=O)NC(=O)CNC(=O)[C@H](CC(C)C)NC(=O)CNC(=O)[C@H](CO)NC(=O)[C@H](CCC(N)=O)NC(=O)[C@H](Cc2c[nH]cn2)NC(=O)CNC1=O [Example 37]		84600
CC[C@H](C)[C@@H]1NC(=O)[C@H](CCCNC(=N)N)NC(=O)[C@H](CC(=O)O)NC(=O)[C@H]([C@@H](C)CC)NC(=O)[C@H](CCCNC(=N)N)NC(=O)CNC(=O)CNC(=O)[C@H](Cc2ccccc2)NC(=O)[C@@H](NC(=O)[C@H](CO)NC(=O)[C@H](CO)NC(=O)[C@H](CCCNC(=N)N)NC(=O)[C@H](CCCNC(=N)N)NC(=O)[C@H](Cc2ccncc2)NC(=O)[C@H](CO)NC(=O)CNC(=O)[C@H](CCCCN)NC(=O)[C@H](CCC(=O)O)NC(=O)[C@H](CCCCN)NC(=O)[C@H](CCC(=O)O)NC(=O)[C@H](CCCCN)NC(=O)[C@H](CCC(=O)O)NC(=O)CC[C@H](NC(=O)CCCCCCCCCCCCCCCCCCC(=O)O)C(=O)O)CSSC[C@@H](C(=O)N2CCC[C@H]2C(=O)N[C@@H](CO)C(=O)N[C@@H](Cc2ccccc2)C(=O)N[C@@H](CCCNC(=N)N)C(=O)N[C@@H](Cc2c[nH]cn2)C(=O)NCC(=O)NCC(=O)N2CCC[C@H]2C(=O)N[C@@H](CO)C(=O)N[C@@H](CO)C(=O)NCC(=O)N[C@@H](C)C(=O)N2CCC[C@H]2C(=O)N2CCC[C@H]2C(=O)N2CCC[C@H]2C(=O)N[C@@H](CO)C(N)=O)NC(=O)CNC(=O)[C@H](CC(C)C)NC(=O)CNC(=O)[C@H](CO)NC(=O)[C@H](Cc2ccc(O)cc2)NC(=O)[C@H](Cc2c[nH]cn2)NC(=O)CNC1=O [Example 38]		40500
CC[C@H](C)[C@@H]1NC(=O)[C@H](CCCNC(=N)N)NC(=O)[C@H](CC(=O)O)NC(=O)[C@H]([C@@H](C)CC)NC(=O)[C@H](CCCNC(=N)N)NC(=O)CNC(=O)CNC(=O)[C@H](Cc2ccccc2)NC(=O)[C@@H](NC(=O)[C@H](CO)NC(=O)[C@H](CO)NC(=O)[C@H](CCCNC(=N)N)NC(=O)[C@@H]2CCCN2C(=O)[C@H](CCCCN)NC(=O)[C@H](CCC(=O)O)NC(=O)CNC(=O)[C@H](CCCCN)NC(=O)[C@H](CCC(=O)O)NC(=O)[C@H](CCCCN)NC(=O)[C@H](CCC(=O)O)NC(=O)[C@H](CCCCN)NC(=O)[C@H](CCC(=O)O)NC(=O)CC[C@H](NC(=O)CCCCCCCCCCCCCCCCCCC(=O)O)C(=O)O)CSSC[C@@H](C(=O)N2CCC[C@H]2C(=O)N[C@@H](CO)C(=O)N[C@@H](Cc2ccccc2)C(=O)N[C@@H](CCCNC(=N)N)C(=O)N[C@@H](Cc2c[nH]cn2)C(=O)NCC(=O)NCC(=O)N2CCC[C@H]2C(=O)N[C@@H](CO)C(=O)N[C@@H](CO)C(=O)NCC(=O)N[C@@H](C)C(=O)N2CCC[C@H]2C(=O)N2CCC[C@H]2C(=O)N2CCC[C@H]2C(=O)N[C@@H](CO)C(N)=O)NC(=O)CNC(=O)[C@H](CC(C)C)NC(=O)CNC(=O)[C@H](CO)NC(=O)[C@H](Cc2ccc(O)cc2)NC(=O)[C@H](Cc2c[nH]cn2)NC(=O)CNC1=O [Example 55]	493	

Source: patent publication US20240174727A1, “LONG-ACTING NATRIURETIC PEPTIDES AND USES THEREOF” (Eli Lilly and Company, priority 2022, published 2024)
